Our source for the inhibition values is PubChem BioAssay AID1085 (Emory University Molecular Libraries Screening Center, 2008).

Amino acid sequences for entries named in this document (tags omitted).
UniProt Q1HVG2, whole entry: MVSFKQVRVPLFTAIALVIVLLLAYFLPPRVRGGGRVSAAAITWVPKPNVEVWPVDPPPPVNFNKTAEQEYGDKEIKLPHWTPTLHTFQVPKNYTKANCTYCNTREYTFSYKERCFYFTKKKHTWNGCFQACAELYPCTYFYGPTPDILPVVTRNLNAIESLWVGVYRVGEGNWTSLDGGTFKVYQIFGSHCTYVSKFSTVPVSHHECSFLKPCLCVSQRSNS

Molecules are shown by their SMILES. The entries are a selection whose mix differs from that of the whole data set. Some of these compounds have results that are not shown, active ones among them. Activity calls are given as the source filed them. No stated cut-off is given here; in the data, active means inhibition above about 50%; inactive means the rest.

The experiment has as its target Glycoprotein 42 (Epstein-Barr virus (strain AG876)) (UniProt Q1HVG2). Briefly: Epstein-Barr virus gp42 inhibitors, primary screen, biochemical, uHTS, fluorescence polarization (AID 1085). Conditions: Fluorescence polarization binding assay, mP read-out; stronger effect = higher value; tested at 21.74 µM. For orientation: Fluorescence polarisation rises when a labelled molecule tumbles more slowly, as on binding a larger partner.
A word on the inhibition: it is the drop in the measured response relative to a control, in per cent. As to `O=C(OC1CN2CCC1CC2)C(CO)(c1ccccc1)c1ccccc1` (stereo unspecified), the inhibition was inactive: -8.62%.
Consider `CN(C)c1cccc(C(=O)NCC2(N(C)C)CCCCC2)c1`, for which the inhibition was inactive: -9.65%.
As to `COc1ccc(Br)c(C(=O)NCC2(N3CCCCC3)CCCCC2)c1`, the inhibition was inactive: -17.6%.
`COc1cccc(C(=O)NCC2(N3CCCCC3)CCCCC2)c1`: the inhibition was inactive: -13.1%.
The same measure for `CN(C)C1CCCC1OC(=O)C(O)(c1ccccc1)c1ccccc1` (stereo unspecified): inactive: -12.1%; for `Cc1ccccc1C(=O)NCC1(N2CCCCC2)CCCCC1`: inactive: -8.48%; for `CCN1CCCC(OC(=O)C2(O)c3ccccc3C=Cc3ccccc32)C1` (stereo unspecified): inactive: -13.5%.
`C=CCN1CCN(CCOC(=O)C(O)(c2ccccc2)c2ccccc2)CC1`: the inhibition is inactive: -7.05%.
For `O=C(NCC1(N2CCCCC2)CCCCC1)c1cc([N+](=O)[O-])ccc1Cl` the value was inactive: -13.8%; for `CCN(CC)CC(C)C(C)OC(=O)C(O)(c1ccccc1)c1ccccc1` (stereo unspecified), inactive: -20.9%.
The same measure for `CC(C)N1C(=O)CC2(CCN(CCOC(=O)C(O)(c3ccccc3)c3ccccc3)CC2)C1=O`: inactive: -3.6%.
